Measured values published in US20150065447A1, “SURVIVAL BENEFIT IN PATIENTS WITH SOLID TUMORS WITH ELEVATED C-REACTIVE PROTEIN LEVELS” (Incyte Corporation, priority 2013, published 2015).

Sequences of proteins named here, by UniProt entry; tags and fusion partners are left off. Residues count along the entry.
UniProt P23458, 849-1154: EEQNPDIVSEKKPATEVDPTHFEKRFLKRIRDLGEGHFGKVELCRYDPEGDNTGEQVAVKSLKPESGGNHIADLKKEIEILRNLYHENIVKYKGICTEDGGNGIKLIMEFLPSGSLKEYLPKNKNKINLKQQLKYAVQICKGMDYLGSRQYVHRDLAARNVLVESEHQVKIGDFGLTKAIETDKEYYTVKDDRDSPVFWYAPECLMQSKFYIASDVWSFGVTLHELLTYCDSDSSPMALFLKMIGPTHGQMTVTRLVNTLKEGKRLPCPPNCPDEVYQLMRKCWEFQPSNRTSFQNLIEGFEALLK

Biological target: T1, human JAK1 (a.a. 837-1142) (Homo sapiens, UniProt P23458)
T1 construct: human JAK1 (a.a. 837-1142); His tag (N); made in house; host or cells: insect cells (baculovirus)
Experiment: In vitro JAK Kinase Assay (HTRF), JAK1
Type: biochemical
Conditions: 1 mM ATP

## CN(C)Cc1cc(F)cc(OC2CCN(CC(CC#N)n3cc(-c4ncnc5[nH]ccc45)cn3)CC2)c1 (single isomer, unassigned) [Compound 14, 4-(4-{3-[(dimethylamino)methyl]-5-fluorophenoxy}piperidin-1-yl)-3-[4-(7H-pyrrolo[2,3-d]pyrimidin-4-yl)-1H-pyrazol-1-yl]butanenitrile]
  IC50: < 10 nM
